From patent US11180499B2, “Phosphodiesterase inhibitors” (BOARD OF REGENTS OF THE UNIVERSITY OF NEBRASKA, priority 2018, dated 2021) come the findings set out here.

Amino acid sequences for entries named in this document (tags omitted). A change or cut given only in a name is not applied to a line headed by its entry.
UniProt Q08499: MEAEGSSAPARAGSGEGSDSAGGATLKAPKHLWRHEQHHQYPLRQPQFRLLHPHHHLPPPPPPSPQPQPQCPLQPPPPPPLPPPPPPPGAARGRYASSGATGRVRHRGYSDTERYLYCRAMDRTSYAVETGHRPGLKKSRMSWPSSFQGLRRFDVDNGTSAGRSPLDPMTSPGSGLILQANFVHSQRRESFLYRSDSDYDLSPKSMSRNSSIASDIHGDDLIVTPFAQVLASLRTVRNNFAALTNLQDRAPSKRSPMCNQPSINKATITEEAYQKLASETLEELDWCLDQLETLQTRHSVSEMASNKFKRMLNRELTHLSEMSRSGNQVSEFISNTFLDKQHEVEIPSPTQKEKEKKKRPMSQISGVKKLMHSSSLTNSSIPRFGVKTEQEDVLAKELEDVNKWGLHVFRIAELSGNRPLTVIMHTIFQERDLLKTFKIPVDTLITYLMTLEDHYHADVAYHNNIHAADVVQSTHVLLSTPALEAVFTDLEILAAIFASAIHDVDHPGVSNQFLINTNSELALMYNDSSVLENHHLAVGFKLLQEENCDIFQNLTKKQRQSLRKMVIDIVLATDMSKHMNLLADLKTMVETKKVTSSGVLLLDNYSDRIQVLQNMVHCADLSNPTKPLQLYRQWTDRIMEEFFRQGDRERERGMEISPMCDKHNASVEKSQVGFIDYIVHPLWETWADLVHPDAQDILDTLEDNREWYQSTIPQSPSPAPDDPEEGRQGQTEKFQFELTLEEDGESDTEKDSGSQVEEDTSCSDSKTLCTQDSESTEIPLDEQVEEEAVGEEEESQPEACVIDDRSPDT

By pIC50 is commonly meant the IC50 on a negative log10 scale, so that one unit is a factor of ten.

pIC50: −log10 of the molar value.

For this test, the target named is T1, PDE4D (Homo sapiens, UniProt Q08499).
T1 construct: purchased BPS Bioscience, San Diego
Put plainly: In vitro PDE4 inhibition study, PDE4D (BPS Bioscience). The test is classed as binding. As for the experimental part: The IC50 values of Compound 8 on PDE4 isoforms were determined by BPS Bioscience, San Diego. In brief, coat proteins (PDE4 isoforms) were added into the plate in a volume of 50 μl (2-5 ng/μl) at 4° C. overnight. The next day, Compound 8 was added to the coated plate with varying concentrations followed by addition of the corresponding biotinylated binding partner. The reaction was incubated for 2 hours at room temperature. Binding assays were performed in duplicate at each concentration and the plates were read by using Synergy 2 BioTek plate reader. The luminescence data were analyzed using the Graphpad Prism. […] Data for a reference compounds or antibodies are included as a control for inhibition. “ND” indicates the compound was not tested.
Consider `COc1c(F)cc(-n2c(C(=O)N3CC(F)C3)cc3cccnc32)cc1F` [Compound 42, (1-(3,5-difluoro-4-methoxyphenyl)-1H-pyrrolo[2,3-b]pyridin-2-yl)(3-fluoroazetidin-1-yl) methanone], for which the pIC50 was around 5.20. With `O=C(c1cc2cccnc2n1-c1ccnc(F)c1)N1CC(F)C1` [Compound 41, (3-fluoroazetidin-1-yl)(1-(2-fluoropyridin-4-yl)-1H-pyrrolo[2,3-b]pyridin-2-yl)methanone], the pIC50 was around 5.72. As to `COc1ncc(-n2c(C(=O)N3CC(F)C3)cc3cccnc32)cc1Cl` [Compound 39, (1-(5-chloro-6-methoxypyridin-3-yl)-1H-pyrrolo[2,3-b]pyridin-2-yl)(3-fluoroazetidin-1-yl) methanone], the pIC50 is 5.80.
